Ki data for one molecule are collected here from ChEMBL document CHEMBL2413008, “Carbonic anhydrase inhibitors: Synthesis and inhibition of the cytosolic mammalian carbonic anhydrase isoforms I, II and VII with benzene sulfonamides incorporating 4,5,6,7-tetrachlorophthalimide moiety” (Bioorg Med Chem, 2013).

Amino acid sequences for entries named in this document (tags omitted). A change or cut given only in a name is not applied to a line headed by its entry.
UniProt P00915: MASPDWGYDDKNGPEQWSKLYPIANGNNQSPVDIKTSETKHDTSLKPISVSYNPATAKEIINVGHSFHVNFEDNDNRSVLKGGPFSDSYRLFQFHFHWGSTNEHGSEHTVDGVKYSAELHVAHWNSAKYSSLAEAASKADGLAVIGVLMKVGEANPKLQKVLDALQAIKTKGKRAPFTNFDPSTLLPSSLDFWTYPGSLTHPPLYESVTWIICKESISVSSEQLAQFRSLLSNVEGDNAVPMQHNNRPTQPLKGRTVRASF

Where only a bound is given, the exact number is not on record here.

The target of the experiment is Carbonic anhydrase 1 (Homo sapiens, UniProt P00915).

One may read the Ki as a dissociation constant, usually derived from enzyme kinetics or from competition with a known ligand. Read a low Ki as higher affinity. In turn, `NS(=O)(=O)c1ccccc1N1C(=O)c2c(Cl)c(Cl)c(Cl)c(Cl)c2C1=O` showed a Ki of more than 10 µM.
